Laboratory results as given in PubChem BioAssay AID463165 (Johns Hopkins Ion Channel Center, 2010).
The list shows a part of the results, in another mix than the full data. Activity calls are given as the source filed them.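 How the source made its calls: active means B-score, a plate-corrected calcium signal, over three deviations above library mean, with baseline fluorescence within five deviations of library mean; inactive means the rest.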

Chains of the proteins cited; added tags and fusions are not shown.
UniProt P49798, whole entry: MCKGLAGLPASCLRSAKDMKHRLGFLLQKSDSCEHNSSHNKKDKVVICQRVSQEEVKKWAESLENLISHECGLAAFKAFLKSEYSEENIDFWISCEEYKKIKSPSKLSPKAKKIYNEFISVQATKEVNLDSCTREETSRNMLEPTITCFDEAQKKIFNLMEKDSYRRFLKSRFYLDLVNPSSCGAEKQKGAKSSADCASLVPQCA

The compounds below were run against Regulator of G-protein signaling 4 (Homo sapiens) (UniProt P49798) (assay: blockers of RGS4 function in M3R calcium signaling – cell-based, HEK293 M3R inducible RGS4, calcium flux, primary screen (AID 463165;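 further: RGS4 expression induced by doxycycline in cells with stable M3 receptor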)). Settings: Fluo-4 calcium flux, at 10 µM, triggered by carbachol at its EC20.

Structure (SMILES)	outcome
C[C@@H]1C=CCP(=O)(Oc2ccccc2)O1 (some centres not stated)	inactive
C[C@H]1OP(=O)(Oc2ccccc2)C[C@@H]2O[C@@H]21 (some centres not stated)	inactive
O=C(OCCN1CCN(CCOCc2ccccc2)CC1)C(O)(c1ccccc1)c1ccccc1	inactive
CCOC(=O)c1ccc(NP(C)(=O)Oc2cc(C)cc(C)c2)cc1 (configuration not stated)	inactive
Cc1cc(C)cc(OP(C)(=O)Nc2ccc(C)cc2C)c1 (configuration not stated)	inactive
O=[As](O)(c1cccc(O)c1)c1cccc(O)c1	inactive
Cc1cccc(OCC(=O)OC2CN3CCC2CC3)c1 (configuration not stated)	inactive
CS(=O)(=O)c1ccc(Cl)c(NC(=O)COC(=O)C(O)(c2ccccc2)c2ccccc2)c1	inactive
COc1ccccc1OP(C)(=O)Nc1cccc(Br)c1 (configuration not stated)	inactive
COc1cc(C(=O)NCC2(N3CCOCC3)CCCCC2)cc(Cl)c1OC(C)C	inactive
O=[As](O)(O)c1cccnc1	inactive
O=C(OC1CN2CCC1CC2)c1ccc(Cl)cc1 (configuration not stated)	inactive
CCOP(=O)(Nc1cccc2ccccc12)OCC	inactive
CCCOP(=S)(Nc1nc(N)cc(=O)[nH]1)OCCC	inactive
Cc1ccc(C)c(NP(C)(=O)Oc2ccccc2)c1 (configuration not stated)	inactive
Nc1cccc2c([As](=O)(O)O)cccc12	inactive
Cc1ccc(NCCc2c([N+](=O)[O-])cc([N+](=O)[O-])cc2[N+](=O)[O-])cc1	inactive
CP(=O)(Nc1cccc(Br)c1)Oc1ccccc1 (configuration not stated)	inactive
Cc1cc(C)cc(OP(C)(=O)Nc2ccccn2)c1 (configuration not stated)	inactive
O=C(O)COc1ccc([As](=O)(O)O)cc1[N+](=O)[O-]	inactive
Nc1ccccc1[As](=O)(O)c1ccccc1	inactive
CS(=O)(=O)c1cc([N+](=O)[O-])c2no[n+]([O-])c2c1	inactive
O=P(Nc1nccs1)(c1ccccc1)c1nc2ccccc2s1 (configuration not stated)	inactive
O=P(Nc1nccs1)(Oc1ccccc1)Oc1ccccc1	inactive

Structure (SMILES)	outcome
O=C(O)c1cccc(Nc2c([N+](=O)[O-])cc([N+](=O)[O-])cc2[N+](=O)[O-])c1	inactive
CCOP1(=S)c2c(C)nn(CCC#N)c2N=C(c2ccccc2F)N1C (configuration not stated)	inactive
CN(C(=O)Cc1ccc(Cl)c(Cl)c1)[C@H]1CC[C@@]2(CCCO2)C[C@@H]1N1CCCC1	inactive
CC1=NCCc2c1[nH]c1ccccc21.O=[N+]([O-])c1cc([N+](=O)[O-])c(O)c([N+](=O)[O-])c1	inactive
CN(C)C(=O)c1cc([N+](=O)[O-])cc2c1-c1c(cc([N+](=O)[O-])cc1[N+](=O)[O-])C2=O	inactive
O=[N+]([O-])c1ccc2c(c1)nnn2O	inactive
CN(C(=O)Cc1ccccc1)[C@@H]1CC[C@]2(CCCO2)C[C@H]1N1CCCC1	inactive
CCOP1(=S)c2c(C)nn(CCC#N)c2N=C(c2ccc(F)cc2)N1C (configuration not stated)	inactive
N#CCCN(C(=O)COC(=O)C(O)(c1ccccc1)c1ccccc1)c1ccc(F)cc1	inactive
NC(=O)Nc1ccc([As](=O)(O)O)cc1	inactive
O=C(/C=C/c1ccccc1)OC1CN2CCC1CC2 (configuration not stated)	inactive
CCOC(=O)C(CC)C1=NC(C)(C)Cc2ccccc21.O=[N+]([O-])c1cc([N+](=O)[O-])c(O)c([N+](=O)[O-])c1 (configuration not stated)	inactive
O=[N+]([O-])c1cc([N+](=O)[O-])c(Nc2nnnn2CCO)c([N+](=O)[O-])c1	inactive
CN(C)C1(CNC(=O)c2ccc(S(C)(=O)=O)cc2)CCCCC1	inactive
COc1cc(C2NCCC3(OCCO3)C2(C)C)cc(OC)c1OC.O=[N+]([O-])c1cc([N+](=O)[O-])c(O)c([N+](=O)[O-])c1 (configuration not stated)	inactive
Cc1ccc(C(=O)OC2CN3CCC2CC3)cc1 (configuration not stated)	inactive
CC1CCC(C(C)C)C(OP(=O)(Nc2ccccn2)c2ccccc2)C1 (configuration not stated)	inactive
Cc1nn(-c2ccccc2)c2c1P(=O)(N1CCOCC1)N(C)C(c1ccccc1)=N2 (configuration not stated)	inactive
O=P1(Nc2ccc(Br)cn2)COc2ccccc2OC1	inactive
O=[As](O)(c1cccs1)c1cccs1	inactive
Cc1ccc(OCC(=O)OC2CN3CCC2CC3)cc1 (configuration not stated)	inactive
CP(=O)(Nc1ccc(SC(F)(F)F)cc1)Oc1ccccc1 (configuration not stated)	inactive
Nc1cccc([As](=O)(O)c2ccccc2)c1	inactive
CCCOc1ccc(NP(C)(=O)Oc2ccc(Cl)cc2)cc1 (configuration not stated)	inactive

Structure (SMILES)	outcome
O=P1(Nc2ncccn2)COc2ccccc2OC1	inactive
CN1CCCCC1COC(=O)C1(O)c2ccccc2CCc2ccccc21 (configuration not stated)	inactive
COc1ccccc1OP(C)(=O)Nc1c(C)cccc1C (configuration not stated)	inactive
CC(C)(C)C(=O)NC(Sc1ncccn1)C(Cl)(Cl)Cl (configuration not stated)	inactive
Clc1n[nH]nc1-c1nn[nH][15n]1	inactive
CN(CCCl)Cc1cc(Cl)c(NC2=NCCN2)c(Cl)c1	inactive
CCOP(=O)(Nc1ccc(C)cn1)OCC	inactive
CCOP(=O)(NC(=NC(C)c1ccccc1)NC(C)c1ccccc1)OCC (configuration not stated)	inactive
O=[N+]([O-])c1cc([N+](=O)[O-])c(-n2nnc3ccccc32)c([N+](=O)[O-])c1	inactive
CCC1=CC2Cc3nc4ccc(Cl)cc4c(N)c3C(C1)C2 (configuration not stated)	inactive
O=P1(Nc2ccccn2)COc2ccccc2OC1	inactive
CC1(CBr)Cn2c(nc3ccccc3c2=O)S1 (configuration not stated)	inactive
O=[As](O)(c1ccccc1Br)c1ccccc1Br	inactive
CN(C(=O)Cc1ccc(Cl)c(Cl)c1)[C@@H]1CCCC[C@H]1N1CCCC1	inactive
CC(C)/C=N\N=C(\N)N[N+](=O)[O-]	inactive
COc1ccccc1CNC(=O)COC(=O)C(O)(c1ccccc1)c1ccccc1	inactive
O=[N+]([O-])c1cc([N+](=O)[O-])c(-c2cnn(-c3ccccc3)c2)c([N+](=O)[O-])c1	inactive
Cc1cc(C)cc(OP(C)(=O)Nc2ccc(SC(F)(F)F)cc2)c1 (configuration not stated)	inactive
O=C(Nc1ccncc1[N+](=O)[O-])c1ccc([N+](=O)[O-])cc1[N+](=O)[O-]	inactive
CCc1ccc(OP(C)(=O)N2CCN(c3ccc([N+](=O)[O-])cc3)CC2)cc1 (configuration not stated)	inactive
CP(=O)(NC(=O)Nc1ccccc1)Oc1ccccc1 (configuration not stated)	inactive
O=C(COc1ccccc1)OC1CN2CCC1CC2 (configuration not stated)	inactive
CP(=O)(Oc1ccccc1)OC(c1ccccc1)C(F)(F)F (configuration not stated)	inactive
CP(=O)(Nc1ccc(SC(F)(F)F)cc1)Oc1ccc(Cl)cc1 (configuration not stated)	inactive

Structure (SMILES)	outcome
Cc1cccc(C)c1OP(C)(=O)Nc1ccc(SC(F)(F)F)cc1 (configuration not stated)	inactive
COP1(=S)c2c(C)nn(CCC#N)c2N=C(c2ccc(F)cc2)N1C (configuration not stated)	inactive
CP(=O)(Nc1ccccn1)Oc1ccc(Cl)cc1 (configuration not stated)	inactive
CCC(C)N(CC(C)C)C(=S)SC(NC(C)=O)C(Cl)(Cl)Cl (configuration not stated)	inactive
O=[N+]([O-])c1cc([N+](=O)[O-])c(O)c([N+](=O)[O-])c1.c1ccc(Oc2ccncc2)cc1	inactive
CCOC(=O)c1ccc(NP(C)(=O)Oc2ccc(OC)cc2)cc1 (configuration not stated)	inactive
CCOC(=O)c1ccc(NC(=O)C(C)(CCl)SC)cc1 (configuration not stated)	inactive
O=C(OC1CN2CCC1CC2)c1cccc([N+](=O)[O-])c1 (configuration not stated)	inactive
CCOP(C)(=S)SCC(=O)NC(C)C(=O)O (configuration not stated)	inactive
Cc1cc(SC(NC(=O)c2ccccc2)C(Cl)(Cl)Cl)nc(C(C)C)n1 (configuration not stated)	inactive
CCCCOc1ccc(C(=O)NCC2(N3CCCCC3)CCCCC2)cc1OC	inactive
CCOC(=O)Nc1ccc([As](=O)(O)O)c(O)c1	inactive
O=[N+]([O-])c1ccc(Nc2ccc(Oc3ccc([N+](=O)[O-])cc3[N+](=O)[O-])cc2)c([N+](=O)[O-])c1	inactive
CP(=O)(Nc1ccccc1Br)Oc1ccccc1 (configuration not stated)	inactive
COc1ccccc1OP(C)(=O)Nc1ccccc1 (configuration not stated)	inactive
Cc1cc(SC(NC=O)C(Cl)(Cl)Cl)ncn1 (configuration not stated)	inactive
O=P(Nc1ccccn1)(c1cccc2ccccc12)c1cccc2ccccc12	inactive
CCOC(=O)Nc1cccc([As](=O)(O)O)c1	inactive
CP(=S)(Nn1cnnc1)Oc1ccccc1 (configuration not stated)	inactive
Cc1ccc2nc3c(c(C)c2c1)CC(C(Cl)Cl)S3 (configuration not stated)	inactive
O=[N+]([O-])c1ccc2c(c1)C=Nc1ccccc1O2	inactive
Cc1cccc(C)c1OP(C)(N)=O (configuration not stated)	inactive
CC(C)(C)c1ccc(OP(C)(=O)Nc2ccc(SC(F)(F)F)cc2)cc1 (configuration not stated)	inactive
Cc1ccc(OP(=O)(Nc2ccc([N+](=O)[O-])cn2)Oc2ccc(C)cc2)cc1	inactive

Structure (SMILES)	outcome
O=[As](O)(c1ccc(O)cc1)c1ccccc1O	inactive
C[As](=O)(O)c1cccc(C(=O)O)c1	inactive
O=[N+]([O-])c1cc([N+](=O)[O-])c(Nc2cccnc2)c([N+](=O)[O-])c1	inactive
Cc1cc(C)cc(OP(C)(N)=O)c1 (configuration not stated)	inactive
O=[N+]([O-])c1cc([N+](=O)[O-])c(-c2ccn[nH]2)s1	inactive
COc1ccc(OP(C)(=O)Nc2cccc(F)c2)cc1 (configuration not stated)	inactive
CCN(CC)C(=S)SC(NC=O)C(Cl)(Cl)Cl (configuration not stated)	inactive
CC(C)NC(=O)NP(=O)(Oc1ccccc1)Oc1ccccc1	inactive
COc1ccccc1OP(C)(=O)Nc1cc(Cl)ccc1C (configuration not stated)	inactive
CC(C)c1ccc(OP(=O)(Nc2ccccn2)Oc2ccccc2F)cc1 (configuration not stated)	inactive
Cc1ccc(NP(C)(=O)Oc2ccccc2)c(C)c1 (configuration not stated)	inactive
COc1ccccc1OP(C)(=O)Nc1ccc(C)cc1 (configuration not stated)	inactive
ClCCSc1nnc(-c2cccnc2)o1	inactive
CCOC(=O)c1ccc(NP(C)(=O)Oc2ccccc2)cc1 (configuration not stated)	inactive
COc1cc(I)ccc1[As](=O)(O)O	inactive
COc1ccc2nc(NP(=O)(c3ccccc3)c3ccccc3)sc2c1	inactive
CCN(CC)CCCOC(=O)C(O)(c1ccccc1)c1ccccc1	inactive
Cc1cc(=O)[nH]c(N[N+](=O)[O-])n1	inactive
O=C(OC1CN2CCC1CC2)C12CC3CC(CC(C3)C1)C2 (configuration not stated)	inactive
Cc1c2c(nc3ccccc13)SC(C(Cl)Cl)C2 (configuration not stated)	inactive
COc1ccc(N/C(=N/P(=O)(N2CCOCC2)N2CCOCC2)N2CCOCC2)cc1	inactive
